Assay results published in patent publication US7435747B2, “Guanidine and amidine derivatives as factor Xa inhibitors” (Sanofi-Aventis Deutschland GmbH, priority 2000, dated 2008).

Chains of the proteins cited; added tags and fusions are not shown. Residues count along the entry.
UniProt P00742, 41-179 partner limits assumed: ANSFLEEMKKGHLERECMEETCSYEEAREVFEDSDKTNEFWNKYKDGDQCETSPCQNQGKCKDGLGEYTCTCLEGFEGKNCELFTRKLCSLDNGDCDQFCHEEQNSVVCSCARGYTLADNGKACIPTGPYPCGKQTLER
UniProt P00742, 235-488 limits assumed: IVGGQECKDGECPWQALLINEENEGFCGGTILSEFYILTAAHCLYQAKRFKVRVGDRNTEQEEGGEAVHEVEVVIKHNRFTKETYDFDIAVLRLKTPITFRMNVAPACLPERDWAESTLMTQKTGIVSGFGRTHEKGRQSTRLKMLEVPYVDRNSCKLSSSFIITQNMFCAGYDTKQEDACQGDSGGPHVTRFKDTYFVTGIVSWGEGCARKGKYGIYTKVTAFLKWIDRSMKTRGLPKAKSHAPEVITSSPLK

Target: T1, human factor Xa (Homo sapiens, UniProt P00742)
T1 construct: 25 μl human factor Xa (Enzyme Research Laboratories, Inc; South Bend, Ind.); purchased Enzyme Research Laboratories, Inc; South Bend, Ind
Test: Factor Xa chromogenic assay (substrate S-2765)
Type: biochemical
Settings: Ki calculated from IC50 corrected for substrate competition; 25° C., 0.5 nM enzyme, 140 μM substrate S-2765; read-out: Ki(FXa), inhibition constant for inhibition of factor Xa
Procedure: The ability of the compounds of the formula I to inhibit factor Xa or factor VIIa or other enzymes like thrombin, plasmin, or trypsin can be assessed by determining the concentration of the compound of the formula I that inhibits enzyme activity by 50%, i. e. the IC50 value, which is related to the inhibition constant Ki. Purified enzymes are used in chromogenic assays. […]
The assay was performed by pre-incubating the compound of formula I plus enzyme for 10 min. […] The initial velocity of chromogenic substrate hydrolysis was measured by the change in absorbance at 405 nm using a Bio-tek Instruments kinetic plate reader (Ceres UV900HDi) at 25° C. during the linear portion of the time course (usually 1.5 min after addition of substrate). […]

Ki: 5.08 µM
Compound: Cc1ccc(C(=O)NCC2CCN(/C(N)=N/C(=O)OCc3ccccc3)CC2)cc1OCCc1ccc(Cl)cc1Cl [Example 14, {Amino-[4-({3-[2-(2,4-dichloro-phenyl)-ethoxy]-4-methyl-benzoylamino}-methyl)-piperidin-1-yl]-methylene}-carbamic acid benzyl ester]
